Each structure is given as a SMILES string. Only a part is listed here, and it is no random draw. Activity calls are given as the source filed them.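 How the source made its calls: active means inhibition above the mean over all tested compounds plus 3 SD (cut at about 30% in these data); inactive means the rest.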

What is called inhibition is the drop in the measured response relative to a control, in per cent.

In this assay the target is Platelet-activating factor acetylhydrolase 2, cytoplasmic (Homo sapiens) (UniProt Q99487). Put plainly: PAFAH2 enzyme inhibitors, primary screen, biochemical, fluorescence polarization, human (AID 492956).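 Further: inhibitors block probe labeling of enzyme so polarization drops; 0% = enzyme with DMSO and 100% = wells lacking PAFAH2 protein.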 Particulars: recombinant PAFAH2, FP-rhodamine activity probe, at 3.39 µM, active compounds read high. On the technique in general: Fluorescence polarisation rises when a labelled molecule tumbles more slowly, as on binding a larger partner.
In the case of `CC(C)c1ccc(OP(=O)(Nc2ccccn2)Oc2ccccc2F)cc1` (stereo not given), the inhibition was inactive: 2.88%.
Turning to `COC(=O)C1(C)COP(=O)(N2CCCCCC2)OC1` (stereo not given), the inhibition is inactive: 3.96%.
On to `Cc1ccc(OP(=O)(Nc2ccc([N+](=O)[O-])cn2)Oc2ccc(C)cc2)cc1`, for which the inhibition was inactive: 7.2%.
For `Cc1ccc2nc3c(c(C)c2c1)CC(C(Cl)Cl)S3` (stereo not given), the inhibition was inactive: -10.4%.
As for `COc1cc(C(=O)NCC2(N3CCOCC3)CCCCC2)ccc1OCC(C)C`, the inhibition was inactive: 0.37%.
Under `O=[N+]([O-])c1ccc(-c2cc([N+](=O)[O-])c(O)c([N+](=O)[O-])c2)cc1` stands inactive: 2.29%; under `C[As](=O)(O)c1cccc(C(=O)O)c1`, inactive: -0.27%.
Under `O=[As](O)(c1ccc(O)cc1)c1ccccc1O` stands inactive: -0.23%; under `O=[N+]([O-])c1cc(Oc2ccc([N+](=O)[O-])cc2C(F)(F)F)cc([N+](=O)[O-])c1`, inactive: 3.41%; under `COc1ccc(N/C(=N/P(=O)(N2CCOCC2)N2CCOCC2)N2CCOCC2)cc1`, inactive: -2.34%.
As for `O=P1(N(CCCl)CCCl)OCCCN1CCCl` (stereo not given), the inhibition is inactive: -5.18%.
For `O=P1(N(CCCl)CCCl)Nc2ccccc2N1`, the inhibition was inactive: 0.41%.
On to `COc1cc(I)ccc1[As](=O)(O)O`, for which the inhibition was inactive: 1.92%.
Take `COc1ccc2nc(NP(=O)(c3ccccc3)c3ccccc3)sc2c1`: the inhibition was inactive: 19.6%.
`Cc1c2c(nc3ccccc13)SC(C(Cl)Cl)C2` (stereo not given): the inhibition is inactive: 3.92%.
Turning to `Cc1cc(=O)[nH]c(N[N+](=O)[O-])n1`, the inhibition was inactive: -5.35%.
Under `O=C(OC1CN2CCC1CC2)C12CC3CC(CC(C3)C1)C2` (stereo not given) stands inactive: -4%; under `O=C(NC(Sc1ccncn1)C(Cl)(Cl)Cl)c1ccccc1` (stereo not given), inactive: 3.61%; under `Oc1ccccc1CNc1ccccn1`, inactive: -0.9%.
For `CC(C)CC(=O)NC(Sc1ccc(Cl)cc1)C(Cl)(Cl)Cl` (stereo not given), the inhibition was inactive: -1.61%.
Consider `Nc1cc(N)c2nonc2c1[N+](=O)[O-]`, for which the inhibition was inactive: -2.62%.
Turning to `Clc1ccc(Cl)c(NC2=NCC(CBr)S2)c1` (stereo not given), the inhibition is inactive: -4%.
Regarding `CN1CCCC(OC(=O)C(c2ccccc2)c2ccccc2)C1` (stereo not given), the inhibition is inactive: -3.45%.
As for `COc1ccccc1OP(=O)(Nc1ccc(C)cn1)Oc1ccccc1OC`, the inhibition was inactive: 2.91%.
Regarding `Cc1ccc(N/C(=N/P(=O)(N2CCOCC2)N2CCOCC2)N2CCOCC2)cc1`, the inhibition was inactive: -0.69%.
As for `CN(C(=O)Cc1ccc(Cl)c(Cl)c1)[C@H]1CCCC[C@H]1N1CCCC1`, the inhibition is inactive: -4.7%.
Next, `NC(=O)c1cc([N+](=O)[O-])cc([N+](=O)[O-])c1N`: inactive: 0.11%.
For `Nc1cccc2ccc([As](=O)(O)O)cc12`, the inhibition was inactive: 14%.
Regarding `CCN(N=Nc1nonc1N)c1nonc1N`, the inhibition was inactive: -2.33%.
For `Cc1ccc(NP(=O)(Oc2ccccc2F)Oc2ccccc2F)nc1`, the inhibition was inactive: -1.62%.
`CN(C(=O)Cc1ccc(Cl)c(Cl)c1)[C@H]1CCCC[C@@H]1N1CCCC1`: the inhibition is inactive: -3.14%.
Next, `CCOP(=O)(Nc1ccccc1)OCC`: inactive: -8.59%; `Cc1cc(SC(NC(=O)c2ccc(F)cc2)C(Cl)(Cl)Cl)ncn1` (stereo not given): inactive: -3.85%.
Next, `O=P(Nc1nc2ccc(Cl)cc2s1)(c1ccccc1)c1ccccc1`: inactive: 2.43%.
As to `CCCC1OP(N)(=O)OCC1CC` (stereo not given), the inhibition was inactive: 3.18%.
For `O=C(O)c1ccccc1[As](=O)(O)O`, the inhibition was inactive: 2.51%.
As for `CC(=O)Nc1ccc([As](=O)(O)O)cc1`, the inhibition is inactive: 6.6%.
For `O=C(O)CNc1ccc([As](=O)(O)O)cc1`, the inhibition was inactive: -0.59%.
Regarding `O=[N+]([O-])c1cccc(NC2=NCC(CBr)S2)c1` (stereo not given), the inhibition was inactive: -8.74%.
For `COC(=O)C1(C)COP(=O)(Nc2ccccc2)OC1` (stereo not given), the inhibition is inactive: 7.62%.
In the case of `O=[N+]([O-])c1ncn(CCn2ncnc2[N+](=O)[O-])n1`, the inhibition was inactive: -3.26%.
With `CC(C)(C)C(=O)NC(Sc1ccncn1)C(Cl)(Cl)Cl` (stereo not given), the inhibition is inactive: 2.51%.
Under `O=C(Nc1cc([As](=O)(O)O)ccc1O)c1ccccc1` stands inactive: 2.55%; under `O=P1(N(CCCl)CCCl)OCCCS1` (stereo not given), inactive: 0.15%; under `CC1CCN(C(=O)Oc2c(Cl)cc(Cl)c3cccnc23)CC1`, inactive: 2.16%.
With `CN(C)C(=O)OCCc1n(C)cc[n+]1C`, the inhibition was inactive: 7.93%.
Turning to `CC(C)=N/N=C(\N)N[N+](=O)[O-]`, the inhibition was inactive: -11.3%.
For `CCN(/C(=N/P(=O)(N1CCOCC1)N1CCOCC1)N1CCOCC1)c1ccc(OC)cc1`, the inhibition was inactive: -4.61%.
As to `C[N+]1=C2C=CC=CC=C2SC12C([N+](=O)[O-])=CC([N+](=O)[O-])=C[C-]2[N+](=O)[O-]` (stereo not given), the inhibition is active: 43.5%.
For `Nc1ccc([As](=O)(O)c2ccc(N)cc2)cc1`, the inhibition is inactive: -3.88%.
With `CCc1nc2c(n1)c1c(non1O)c1c2no[n+]1[O-]`, the inhibition is inactive: 13.9%.
Under `O=[N+]([O-])c1cc([N+](=O)[O-])c(CCNc2ccccc2)c([N+](=O)[O-])c1` stands inactive: 11.9%; under `Cc1ccc(NP(=O)(Oc2ccccc2)Oc2ccccc2)nc1`, inactive: 10.8%.
On to `O=[N+]([O-])c1cccc2n[nH]nc12`, for which the inhibition is inactive: -3.87%.
With `CC(=O)N1C2C3N(C(C)=O)C1C1N(C(C)=O)C(C(N1C(C)=O)N3C(C)=O)N2C(C)=O`, the inhibition is inactive: -1.52%.
In the case of `COc1ccc(C2=NCC(CBr)S2)cc1` (stereo not given), the inhibition was inactive: 2.81%.
Turning to `c1nnnn1CCn1cnnn1`, the inhibition was inactive: 2.88%.
`CC(C)C(=O)NC(Sc1ccccc1)C(Cl)(Cl)Cl` (stereo not given): the inhibition was inactive: -1.3%.
As to `O=P(Nc1nccs1)(c1ccccc1)c1ccccc1`, the inhibition is inactive: 0.42%.
For the compound `O=C(OC1CN2CCC1CC2)c1cccc(Cl)c1` (stereo not given), the inhibition was inactive: -2.48%.
Regarding `Nc1ccc([As](=O)(O)c2ccc([N+](=O)[O-])cc2)cc1`, the inhibition was inactive: -1.49%.
Regarding `C(Cc1nn[nH]n1)Cc1nn[nH]n1`, the inhibition was inactive: 6.36%.
Under `O=[As](O)(c1ccccc1)c1ccc(O)cc1` stands inactive: 2.01%; under `O=[N+]([O-])c1ccc(O)c(/C=N/Nc2ccc([N+](=O)[O-])cc2[N+](=O)[O-])c1`, active: 36.5%; under `O=[N+]([O-])c1ncn(CCn2cnc([N+](=O)[O-])n2)n1`, inactive: -6.14%.
With `CC(=O)NC(SC(=S)N(C)C)C(Cl)(Cl)Cl` (stereo not given), the inhibition is inactive: -2.08%.
As to `C[C@H]1OP(=O)(Oc2ccccc2)[C@H](O)[C@H](O)[C@H]1N=[N+]=[N-]` (stereo not given in full), the inhibition was inactive: -0.03%.
Under `O=P(Nc1nc2ccccc2s1)(c1ccccc1)c1ccccc1` stands inactive: 4.98%; under `O=P(Nc1ccccn1)(c1ccc(Br)cc1)c1ccc(Br)cc1`, inactive: 0.28%.
Consider `CN(C)C1(CNC(=O)c2ccc(Cl)c(S(N)(=O)=O)c2)CCCCC1`, for which the inhibition is inactive: 4.77%.
On to `COc1ccc(N)c([N+](=O)[O-])c1[N+](=O)[O-]`, for which the inhibition was inactive: 10.1%.
`CN(C)C(=O)Oc1noc2ccccc12`: the inhibition is inactive: 8.49%.
On to `O=c1c2cc([N+](=O)[O-])ccc2[nH]c2c([N+](=O)[O-])cc([N+](=O)[O-])cc12`, for which the inhibition is inactive: 10.1%.
With `Cc1ccccc1OP(=O)(Nc1ccccn1)Oc1ccccc1C`, the inhibition was inactive: 10.4%.
Regarding `CC(NC(=O)COC(=O)C(O)(c1ccccc1)c1ccccc1)c1ccccc1` (stereo not given), the inhibition is inactive: 5.45%.
Next, `CCC(=O)N1C2C3N(C(=O)CC)C1C1N(C(=O)CC)C(C(N1C(=O)CC)N3C(=O)CC)N2C(=O)CC`: inactive: -4.4%.
`O=C(OC1CN2CCC1CC2)c1ccccc1` (stereo not given): the inhibition is inactive: 4.56%.
`Cc1ccc(OP(=O)(Nc2ccccn2)Oc2ccc(C)cc2)cc1`: the inhibition is inactive: 1.15%.
Take `CC(=O)NC(SC(=S)N(CC(C)C)CC(C)C)C(Cl)(Cl)Cl` (stereo not given): the inhibition was inactive: 0.7%.
Turning to `COC(=O)c1cc2c(s1)N=C(c1ccccc1)N(C)P2(=O)N1CCOCC1` (stereo not given), the inhibition is inactive: 0.36%.
Turning to `O=P1(N(CCCl)CCCl)OCCC2CCCCN21` (stereo not given), the inhibition was inactive: -3.66%.
With `CCNC(=S)/N=C(\N)N[N+](=O)[O-]`, the inhibition is inactive: -1.79%.
Consider `O=C(NC1CCS(=O)(=O)C1)NP(=S)(Oc1ccccc1)Oc1ccccc1` (stereo not given), for which the inhibition was inactive: 8.43%.
As for `CC(=O)Nc1ccc(Oc2c([N+](=O)[O-])cc([N+](=O)[O-])cc2[N+](=O)[O-])cc1`, the inhibition is inactive: 0.07%.
As to `CC(=O)Nc1ccc([As](=O)(O)O)c(O)c1`, the inhibition is inactive: 2.01%.
`C[C@@H]1C=CCP(=O)(Oc2ccccc2)O1` (stereo not given in full): the inhibition was inactive: 4.13%.
In the case of `C[C@H]1OP(=O)(Oc2ccccc2)C[C@@H]2O[C@@H]21` (stereo not given in full), the inhibition was inactive: -1.81%.
On to `Cc1ccccc1CN(C)C(=O)COC(=O)C(O)(c1ccccc1)c1ccccc1`, for which the inhibition is inactive: -1.93%.
Regarding `COC(=O)C1(C)COP(=O)(NCc2ccccc2)OC1` (stereo not given), the inhibition was inactive: 1.36%.
Turning to `N#C/C(=C\c1ccc(N(CCBr)CCBr)cc1)C(N)=O`, the inhibition is inactive: 3.77%.
Turning to `CC(=O)c1ccc(N2CC2c2ccncc2)cc1` (stereo not given), the inhibition is inactive: -6.74%.
As for `CC(C)(C)C(=O)NC(Sc1ccccc1)C(Cl)(Cl)Cl` (stereo not given), the inhibition is inactive: 0.89%.
In the case of `CCc1cc(O)c([N+](=O)[O-])c(C)c1[N+](=O)[O-]`, the inhibition was inactive: -1.47%.
As for `CCOc1ccc(C2=NCC(CBr)S2)cc1` (stereo not given), the inhibition is inactive: -1.03%.
Take `O=P1(Nc2nc3ccc(Cl)cc3s2)COc2ccccc2O1` (stereo not given): the inhibition is inactive: 1.47%.
